PubChem BioAssay AID848 (Columbia University Molecular Screening Center, 2007)
The list shows a part of the results, in another mix than the full data. Some results for these compounds are left out of this collection, so the calls shown say nothing about other tests. Activity calls are given as the source filed them.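 How the source made its calls: active means cell count reduction exceeding the screen mean by over 5 SD, scaled to untreated wells per plate (cut at about 78% in these data); inactive means the rest.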

test: cytotoxicity in TNFa-stimulated HUVEC, primary screen, cytotoxicity control for VCAM1 expression modulator project, imaging, Hoechst nuclei count (AID 848); conditions: HUVEC TNFalpha-stimulated, at 2 µM, active compounds read high;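 further: cells counted after 24 h of TNF alpha exposure following the 1 h pretreatment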

| Structure (SMILES) | cell count reduction |
| --- | --- |
| O=C(OC1CN2CCC1CC2)C(CO)(c1ccccc1)c1ccccc1 (stereo not drawn) | inactive: 20.3% |
| CN(C)c1cccc(C(=O)NCC2(N(C)C)CCCCC2)c1 | inactive: -38.2% |
| CC(C)N1C(=O)CC2(CCN(CCOC(=O)C(O)(c3ccccc3)c3ccccc3)CC2)C1=O | inactive: -34.9% |
